# Source: article PMC7442650, “A machine learning-based chemoproteomic approach to identify drug targets and binding sites in complex proteomes” (Nature Communications, 2020)
# By UniProt entry, the sequences of proteins in these tests, tags left out.
# UniProt P62942, whole entry: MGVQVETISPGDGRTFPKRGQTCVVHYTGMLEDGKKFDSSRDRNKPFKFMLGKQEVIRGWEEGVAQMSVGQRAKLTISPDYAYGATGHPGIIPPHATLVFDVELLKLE
# Read-outs that look alike come from different tables or passages of the source.
# Biological target: FKBP1A (Homo sapiens, UniProt P62942)
# [1] = FKBP1A peptide LVFDVELLK, Decreasing
# [2] = FKBP1A peptide VFDVELLK, Decreasing
# [3] = FKBP1A peptide YTGMLEDGK, Decreasing
structure (smiles),measurement,setting,value
CO[C@H]1C[C@@H]2CC[C@@H](C)[C@@](O)(O2)C(=O)C(=O)N2CCCC[C@H]2C(=O)O[C@H]([C@H](C)C[C@@H]2CC[C@@H](O)[C@H](OC)C2)CC(=O)[C@H](C)/C=C(\C)[C@@H](O)[C@@H](OC)C(=O)[C@H](C)C[C@H](C)/C=C/C=C/C=C/1C [Rapamycin],LiP Rank,[1],8
same,Score,[1],3.01
same,LiP Rank,[2],13
same,Score,[2],2.35
same,LiP Rank,[3],7
same,Score,[3],3.07
same,LiP Rank,"FKBP1A peptide […], Decreasing",5
same,Score,"FKBP1A peptide […], Decreasing",3.1
same,Score,"FKBP1A peptide […], Increasing",4.49
same,Score,"FKBP1A peptide […], Increasing, Supplementary Data 4",4.910
same,DRC,"peptide […], FKBP1A",0.982
same,Target,"peptide […], FKBP1A",Yes
same,LiP Score,"peptide […], FKBP1A, Supplementary Data 3",4.910
